Drawing on US20210139484A1, “DIHYDROISOQUINOLINE-2(1H)-CARBOXAMIDE AND RELATED COMPOUNDS AND THEIR USE IN TREATING MEDICAL CONDITIONS” (GOSSAMER BIO SERVICES, INC., priority 2018, published 2021), this text covers IC50 for 51 compounds.

Chains of the proteins cited; added tags and fusions are not shown. Residues count along the entry.
UniProt Q92918, 1-346 limits assumed: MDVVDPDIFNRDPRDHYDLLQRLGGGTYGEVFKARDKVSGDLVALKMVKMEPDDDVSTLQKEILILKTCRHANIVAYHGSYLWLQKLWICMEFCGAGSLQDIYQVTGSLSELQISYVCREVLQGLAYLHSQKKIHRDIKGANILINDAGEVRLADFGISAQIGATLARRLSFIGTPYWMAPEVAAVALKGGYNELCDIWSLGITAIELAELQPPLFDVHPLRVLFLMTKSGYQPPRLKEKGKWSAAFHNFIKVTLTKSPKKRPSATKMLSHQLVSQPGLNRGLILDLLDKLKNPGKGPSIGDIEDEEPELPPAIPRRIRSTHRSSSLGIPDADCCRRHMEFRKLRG

One assay has as its target human HPK1 protein (Homo sapiens, UniProt Q92918). The assay can be described thus: Human HPK1 protein TR-FRET assay. The conditions noted are these: 1 mM ATP, Table 19. As for the experimental part:
Exemplary compounds from the above Examples were tested for ability to inhibit HPK1 using a human HPK1 protein TR-FRET Assay. Assay procedures and results are described below.
N-terminal GST-tagged recombinant human HPK1 protein (a.a. 1-346) was expressed in Sf9 insect cells using a baculovirus expression system (Signalchem Catalog #M23-11G). The enzyme was diluted in assay buffer (50 mM Tris pH 7.5, 1 mM MgCl2, 0.01% NP-40 and 2 mM DTT) to obtain a 4× working solution at a concentration of 40 nM HPK1 enzyme.
A 5 μM stock of ULight™ CREBtide peptide RRPSYRK (Perkin Elmer Product No. TRF0107-M) derived from human cAMP Response Element Binding (CREB) Protein was prepared in storage buffer containing 50 mM Tris-HCl (pH 7.4), 0.9% NaCl, 0.1% BSA, and 0.05% sodium azide. The CREBtide substrate was diluted in assay buffer (50 mM Tris pH 7.5, 1 mM MgCl2, 0.01% NP-40, 2 mM DTT) with 2 mM ATP to a final concentration of 200 nM CREBtide peptide to obtain a 2× working solution of substrate. HPK1 enzyme and CREBtide substrate solutions were mixed with compounds diluted in DMSO to obtain a final concentration of enzyme, substrate, and ATP of 10 nM, 100 nM, and 1 mM, respectively, in 1% DMSO. The final assay mixture was incubated at room temperature for 60 minutes.
A solution of Europium-labeled anti-phospho-CREB (Ser133) antibody (Perkin Elmer Product No. TRF0200-M), EDTA and LANCE™ Detection Buffer (Perkin Elmer Product No. CR97-100) were added to each well to obtain a final concentration of 2 nM antibody, 10 mM EDTA and 1× LANCE buffer. The resulting mixture was incubated at room temperature for 60 minutes.
The fluorescence resonance energy transfer (FRET) signal was measured on an Envision plate reader: Excitation filter=340 nm, APC emission=665 nm, Europium emission=615 nm, dichroic mirror=D400/D630, delay time=100 μs, and integration time=200 μs. The half maximal inhibitory concentration (IC50) values for compounds were calculated from the quotient of the fluorescence signal at 665 nm divided by the fluorescence signal at 615 nm. The quotient of the fluorescence signals in the presence of DMSO without compound is set as 100 percent enzymatic activity. A 4-parameter logistic model in PRISM (GraphPad) was used to calculate the IC50 for a given compound.
The IC50 is the concentration that inhibits the measured activity by half. In turn, `CCN1CCN(Cc2ccc(NC(=O)N3Cc4cc(Oc5ccnc6[nH]ccc56)ccc4CC3C)cc2C(F)(F)F)CC1` (stereo not drawn) returned an IC50 of under 500 nM.
`CCN1CCN(Cc2ccc(NC(=O)N3CCc4ccc(Nc5ccnc6[nH]ccc56)cc4C3)cc2C(F)(F)F)CC1` displayed an IC50 of under 500 nM.

The same assay, now with this note: 1 mM ATP, Table 20.
In turn, `CC[C@@H]1CN(C(=O)Nc2cnc(CN3CCN(CC)CC3)c(C(F)(F)F)c2)Cc2cc(Oc3ccnc4[nH]c(C#N)cc34)cnc21` returned an IC50 of under 500 nM.
On the same count and under the same terms, under `CC[C@H]1CN(C(=O)Nc2ccc(CN3CCN(C)CC3)c(C(F)F)c2)Cc2cc(Oc3ncnc4[nH]c(C5CC5)cc34)ccc21` stands under 500 nM; under `CC[C@H]1CN(C(=O)Nc2ccc(CN3CCN(C)CC3)c(C(F)F)c2)Cc2cc(Oc3ccnc4[nH]c(CO)cc34)ccc21`, under 500 nM.
Same read-out and setting: under `CC[C@@H]1CN(C(=O)Nc2ccc(CN3CCN(C)CC3)c(C(F)(F)F)c2)Cc2cc(Oc3ccnc4[nH]c(C#N)cc34)ccc21` stands under 500 nM; under `CCN1CCN(Cc2ccc(NC(=O)N3Cc4cc(Oc5ccnc6[nH]c(CO)cc56)cnc4[C@@H](C)C3)cc2C(F)(F)F)CC1`, under 500 nM.
For the compound `CC[C@H]1CN(C(=O)Nc2ccc(CN3CCN(CC)CC3)c(C(F)(F)F)c2)Cc2cc(Oc3ncnc4[nH]c(C5CC5)cc34)cnc21`, the IC50 was under 500 nM.
Compound `CC[C@@H]1CN(C(=O)Nc2ccc(CN3CCN(CC)CC3)c(C(F)(F)F)c2)Cc2cc(Oc3ccnc4[nH]ccc34)cnc21` gave an IC50 of under 500 nM.
The same measure, in the same setting: the result for `CC[C@H]1CN(C(=O)Nc2ccc(CN3CCN(CC)CC3)c(C(F)(F)F)c2)Cc2cc(Oc3ccnc4[nH]c(CO)cc34)cnc21` reads under 500 nM; that for `CC[C@H]1CN(C(=O)Nc2cnc(OC3CCN(C)CC3)c(C(F)(F)F)c2)Cc2cc(Oc3ccnc4[nH]c(C5(O)CC5)cc34)cnc21`, under 500 nM.
For the compound `CN1CCN(Cc2ccc(NC(=O)N3CCc4ccc(Oc5ccnc6[nH]c(C(=O)N(C)C)cc56)cc4C3)cc2C(F)(F)F)CC1`, the IC50 was under 500 nM.
The compound `CC[C@H]1CN(C(=O)Nc2ccc(CN3CCNCC3)c(C(F)(F)F)c2)Cc2cc(Oc3ccnc4[nH]c(C5(O)COC5)cc34)ccc21` registered an IC50 of under 500 nM.
Consider `CC[C@H]1CN(C(=O)Nc2ccc(CN3CCN(C)CC3)c(C(F)F)c2)Cc2cc(Oc3ccnc4[nH]c(C5(O)COC5)cc34)ccc21`, for which the IC50 is under 500 nM.
Still for that read-out and setting: the result for `CC[C@H]1CN(C(=O)Nc2ccc(CN3CCNCC3)c(C(F)(F)F)c2)Cc2cc(Oc3ccnc4[nH]c(C5(O)COC5)cc34)cnc21` reads under 500 nM.
On the same count and under the same terms, the result for `CC[C@H]1CN(C(=O)Nc2ccc(CN3CCN(CCO)CC3)c(C(F)(F)F)c2)Cc2cc(Oc3ccnc4[nH]c(C5CC5)cc34)ccc21` reads under 500 nM; that for `CC[C@H]1CN(C(=O)Nc2ccc(CN3CCN(C)CC3)c(C(F)(F)F)c2)Cc2cc(Oc3ccnc4[nH]c(C5(O)COC5)cc34)ccc21`, under 500 nM.
Regarding `CC[C@H]1CN(C(=O)Nc2ccc(CN3CCN(C)CC3)c(C(F)F)c2)Cc2cc(Oc3ccnc4[nH]c(C#N)cc34)ccc21`, the IC50 was under 500 nM.
On to `CCN1CCN(Cc2ccc(NC(=O)[C@@H]3Cc4cc(Oc5ccnc6[nH]ccc56)cnc4[C@@H](C)C3)cc2C(F)(F)F)CC1` (relative stereo), for which the IC50 is under 500 nM.
Still for that read-out and setting: the result for `CC[C@@H]1CN(C(=O)Nc2ccc(CN3CCN(C)CC3)c(C(F)F)c2)Cc2cc(Oc3ccnc4[nH]c(CO)cc34)cnc21` reads under 500 nM.
`CC[C@@H]1CN(C(=O)Nc2ccc(CN3CCN(C)CC3)c(C(F)F)c2)Cc2cc(Oc3ccnc4[nH]c(C5(O)COC5)cc34)cnc21`: the IC50 was under 500 nM.
The same measure, in the same setting: the result for `CN(C)C(=O)c1cc2c(Oc3ccc4c(c3)CN(C(=O)Nc3ccc(CN5CCNCC5)c(C(F)(F)F)c3)CC4)ccnc2[nH]1` reads under 500 nM; that for `CC[C@H]1CN(C(=O)Nc2ccc(CN3CCN(C)CC3)c(C(F)(F)F)c2)Cc2cc(Oc3ccnc4[nH]c(C(=O)NCCO)cc34)cnc21`, under 500 nM; that for `CC[C@H]1CN(C(=O)Nc2ccc(CN3CCNCC3)c(C(F)(F)F)c2)Cc2cc(Oc3ccnn4cc(C(=O)N(C)C)nc34)cnc21`, 5000 to 10000 nM.
Still for that read-out and setting: under `CC[C@H]1CN(C(=O)Nc2cnc(OC3CCN(C)CC3)c(C(F)(F)F)c2)Cc2cc(Oc3ccnc4[nH]c(C#N)cc34)cnc21` stands under 500 nM; under `CC[C@H]1CN(C(=O)Nc2ccc(CN3CCN(C)CC3)c(C(F)(F)F)c2)Cc2cc(Oc3ccnc4[nH]c(C(C)=O)cc34)cnc21`, under 500 nM; under `CC[C@@H]1CN(C(=O)Nc2cnc(O[C@@H]3CCN(C)C3)c(C(F)(F)F)c2)Cc2cc(Oc3ccnc4[nH]c(C)cc34)cnc21`, 500 to 5000 nM.
On the same count and under the same terms, under `CC[C@@H]1CN(C(=O)Nc2ccc(CN3CCN(CC)CC3)c(C(F)(F)F)c2)Cc2cc(Oc3ccnc4[nH]c(CCOC)cc34)cnc21` stands under 500 nM.
The compound `CC[C@H]1CN(C(=O)Nc2ccc(CN3CCN(C)CC3)c(C(F)(F)F)c2)Cc2cc(Oc3ccnc4[nH]c(C(=O)N5CC[C@@H](O)C5)cc34)cnc21` registered an IC50 of under 500 nM.
On the same count and under the same terms, the result for `C[C@@H]1CN(C(=O)Nc2ccc(CN3CCN(C)CC3)c(C(F)(F)F)c2)Cc2cc(Oc3ccnc4[nH]c(C5(O)CC5)cc34)cnc21` reads under 500 nM.
`CCN1CCN(Cc2ccc(NC(=O)N3Cc4cc(Oc5ccnc6[nH]c(C)cc56)ccc4C(C#N)C3)cc2C(F)(F)F)CC1` (stereo not drawn) gave an IC50 of under 500 nM.
`CC[C@H]1CN(C(=O)Nc2ccc(CN3CCN(C)CC3)c(C(F)(F)F)c2)Cc2cc(Oc3ccnn4cc(C(=O)N(C)C)nc34)cnc21` displayed an IC50 of 500 to 5000 nM.
Same read-out and setting: under `CC[C@@H]1CN(C(=O)Nc2ccc(CN3CCN(C)CC3)c(C(F)(F)F)c2)Cc2cc(Oc3ccnc4[nH]c(C#N)cc34)cnc21` stands under 500 nM; under `CC[C@H]1CN(C(=O)Nc2ccc(CN3CCN(C)CC3)c(C(F)(F)F)c2)Cc2cc(Oc3ccnn4cc(C(=O)NC)cc34)cnc21`, under 500 nM; under `CC[C@H]1CN(C(=O)Nc2ccc(CN3CCN(C)CC3)c(C(F)(F)F)c2)Cc2cc(Oc3ccnn4cc(C(=O)N(C)C)cc34)cnc21`, under 500 nM.
The compound `CC[C@H]1CN(C(=O)Nc2ccc(CN3CCN(CCO)CC3)c(C(F)F)c2)Cc2cc(Oc3ccnc4[nH]c(C5CC5)cc34)ccc21` registered an IC50 of under 500 nM.
The same measure, in the same setting: under `CC[C@H]1CN(C(=O)Nc2ccc(CN3CCN(CCO)CC3)c(C(F)F)c2)Cc2cc(Oc3ccnc4[nH]c(CO)cc34)ccc21` stands under 500 nM.
For `C[C@@H]1CN(C(=O)Nc2ccc(CN3CCN(CCO)CC3)c(C(F)(F)F)c2)Cc2cc(Oc3ccnc4[nH]c(C#N)cc34)ccc21`, the IC50 was under 500 nM.
Regarding `CC[C@H]1CN(C(=O)Nc2ccc(CN3CCNCC3)c(C(F)(F)F)c2)Cc2cc(Oc3ccnc4[nH]c(C(=O)N(C)C)cc34)cnc21`, the IC50 was under 500 nM.
Same read-out and setting: under `CC[C@H]1CN(C(=O)Nc2ccc(CN3CCN(C)CC3)c(C(F)(F)F)c2)Cc2cc(Oc3ncnc4[nH]c(C(=O)N(C)C)cc34)cnc21` stands under 500 nM; under `CC[C@@H]1CN(C(=O)Nc2cnc(CN3CCN(CC)CC3)c(C(F)(F)F)c2)Cc2cc(Oc3ccnc4[nH]c(C5CC5)cc34)cnc21`, under 500 nM.
On the same count and under the same terms, under `CC[C@@H]1CN(C(=O)Nc2ccc(CN3CCN(C)CC3)c(C(F)F)c2)Cc2cc(Oc3ccnc4[nH]c(C5CC5)cc34)cnc21` stands under 500 nM; under `CC[C@H]1CN(C(=O)Nc2ccc(CN3CCN(CC)CC3)c(C(F)(F)F)c2)Cc2cc(Oc3ccnc4[nH]ccc34)cnc21`, under 500 nM; under `CCN1CCN(Cc2ccc(NC(=O)N3Cc4cc(Oc5ccnc6c5CCC(=O)N6)cnc4C(C)C3)cc2C(F)(F)F)CC1` (single isomer, unassigned), under 500 nM.
The compound `CC[C@H]1CN(C(=O)Nc2ccc(CN3CCN(C)CC3)c(C(F)(F)F)c2)Cc2cc(Oc3ccnc4[nH]c(-c5n[nH]c(C)n5)cc34)cnc21` registered an IC50 of under 500 nM.
Still for that read-out and setting: the result for `CC[C@H]1CN(C(=O)Nc2cnc(OC3CCN(C)CC3)c(C(F)(F)F)c2)Cc2cc(Oc3ccnc4[nH]c(C5CC5)cc34)cnc21` reads under 500 nM; that for `C[C@@H]1CN(C(=O)Nc2ccc(CN3CCN(C)CC3)c(C(F)(F)F)c2)Cc2cc(Oc3ccnc4[nH]c(C#N)cc34)ccc21`, under 500 nM; that for `CC[C@H]1CN(C(=O)Nc2ccc(CN3CCNCC3)c(C(F)(F)F)c2)Cc2cc(Oc3ccnc4[nH]c(C#N)cc34)cnc21`, under 500 nM.
Take `Cc1cc2c(Oc3cnc4c(c3)CN(C(=O)Nc3ccc(CN5C[C@@H]6C[C@H]5CN6C)c(C(F)(F)F)c3)C[C@H]4C)ccnc2[nH]1`: the IC50 was 5000 to 10000 nM.
Same read-out and setting: the result for `CCN1CCN(Cc2ccc(NC(=O)[C@H]3Cc4cc(Oc5ccnc6[nH]ccc56)cnc4[C@@H](C)C3)cc2C(F)(F)F)CC1` (relative stereo) reads under 500 nM; that for `CC[C@H]1CN(C(=O)Nc2ccc(CN3CCN(CC)CC3)c(C(F)(F)F)c2)Cc2cc(Oc3ccnc4[nH]c(C5CC5)cc34)cnc21`, under 500 nM.
